Reference: publication PMC3050001 (Science (New York, N.Y.), 2010)

System: P. berghei
Type: in vivo, Plasmodium berghei (mice)

Question: Which “Cure (%)” value (1 × 100 mg/kg oral, cure = no parasite present at day 30, 100 mg/kg) does the source give for `C[C@H]1Cc2c([nH]c3cc(Cl)c(F)cc23)[C@@]2(N1)C(=O)Nc1ccc(Cl)cc12` [NITD609] here?
Answer: completely clear P. berghei infection in all treated mice

Question: What about the Cure (three daily oral doses of 50 mg/kg) of the same compound?
Answer: complete cure
